Assay results from patent US10414718B2, “Dezocine analogue” (priority 2016, dated 2019).

Chains of the proteins cited; added tags and fusions are not shown.
UniProt P35372, whole entry: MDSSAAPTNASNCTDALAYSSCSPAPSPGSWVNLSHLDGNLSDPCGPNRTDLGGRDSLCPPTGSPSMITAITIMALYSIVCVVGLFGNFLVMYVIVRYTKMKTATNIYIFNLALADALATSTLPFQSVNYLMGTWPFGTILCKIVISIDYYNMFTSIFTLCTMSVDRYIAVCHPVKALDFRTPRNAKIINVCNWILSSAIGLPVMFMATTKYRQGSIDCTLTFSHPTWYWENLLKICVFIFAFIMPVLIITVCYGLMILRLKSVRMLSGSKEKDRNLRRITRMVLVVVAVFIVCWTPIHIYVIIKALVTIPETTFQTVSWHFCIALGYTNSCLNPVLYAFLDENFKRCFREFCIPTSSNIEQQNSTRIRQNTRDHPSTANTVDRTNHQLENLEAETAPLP
UniProt P41145, whole entry: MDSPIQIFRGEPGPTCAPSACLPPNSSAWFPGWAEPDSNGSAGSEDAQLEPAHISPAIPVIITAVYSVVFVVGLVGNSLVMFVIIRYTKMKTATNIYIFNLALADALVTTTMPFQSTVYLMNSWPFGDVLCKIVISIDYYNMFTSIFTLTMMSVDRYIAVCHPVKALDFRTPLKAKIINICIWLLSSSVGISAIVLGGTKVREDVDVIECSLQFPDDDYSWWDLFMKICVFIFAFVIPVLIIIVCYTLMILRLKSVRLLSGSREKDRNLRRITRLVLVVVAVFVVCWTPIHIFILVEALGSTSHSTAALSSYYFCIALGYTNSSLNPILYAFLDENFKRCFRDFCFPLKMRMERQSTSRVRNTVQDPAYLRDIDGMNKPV

How the values were obtained:
Format in all cases: cell-based
μ opioid receptor = μ opioid receptor (Homo sapiens, UniProt P35372); assay: FLIPR intracellular calcium signal test, HEK293-μ cells; settings: for EC50: read-out: Mu receptor EC50, EC50 (activation) test; for IC50: read-out: Mu receptor IC50, IC50 (inhibition) test against EC80 of positive agonist
κ opioid receptor = κ opioid receptor (Homo sapiens, UniProt P41145); assay: FLIPR intracellular calcium signal test, HEK293-κ cells; settings: for EC50: read-out: Kapp receptor EC50, EC50 (activation) test; for IC50: read-out: Kapp receptor IC50, IC50 (inhibition) test against EC80 of positive agonist
Method: (§1) Fluorescence imaging plate reader FLIPR was used to detect changes of intracellular calcium signals. EC50 and IC50 values of the compounds were used as indicators to evaluate the activation or inhibition of the compounds on μ, κ, and δ opioid receptors.
(§2) Cell lines: HEK293-μ, HEK293-κ and HEK293-δ, stable-transfected cell lines HEK293-μ, HEK293-κ and HEK293-δ; Cell culture media (DMEM, Invitrogen #11965118, 10% fetal bovine serum Invitrogen #10099141, Geneticin Selective Antibiotic (G418) 300 μg/mL, Invitrogen #10131027, Blasticidin-S HCL 2 ug/mL Invitrogen #A1113902)
(§3) 1. Cell Seeding (HEK293-μ, HEK293-κ and HEK293-δ Cells)
(§4) 1) Preheating medium, pancreatic enzyme, and DPBS in a 37° C. water bath. Aspirating the culture medium from the cell culture flask and washing it with 10 mL DPBS;
(§5) 2) Adding the preheated pancreatic enzyme solution to the cell culture flask, rotating the flask slightly to make the pancreatic enzymes evenly cover the cell surface of the flask, and then putting it into a 37° C., 5% CO2 incubator to digest for 1-2 minutes;
(§6) 3) Suspending the cells with 10-15 mL culture medium in each T150 cm^2 cell culture flask, centrifugating at 800 rpm for 5 minutes, and resuspending the cells with 10 mL culture medium, aspirating 1 mL cell resuspension to be counted with Vi-cell;
(§7) 4) Diluting HEK293-μ, HEK293-κ and HEK293-δ cells to 5×10^5/mL with culture medium, use multichannel pipette to add diluted cells into 384 plate (Greiner #781946) (50 μL/well, 25000 cells/well for HEK293-μ, HEK293-κ and HEK293-δ cells). Placing the cell plate in a 37° C., 5% CO2 incubator overnight.
(§8) 2. Adding Compound Samples:
(§9) 1) Diluting the compound to 20 mM with DMSO, 3 fold diluted, 8 gradients, double reduplicative wells, and adding it to the compound plate using an Echo ultrasonic liquid handler device (Echo liquid handler).
(§10) 1) Washing off the cell culture medium in 384 plate with vacuum pump, adding 20 μL Fluo-4 Direct fluorescent dye, then incubating in a 37° C., 5% CO2 incubator for 50 minutes, followed by equilibrating at room temperature for 10 minutes.
(§11) 2) EC50 test: Adding 20 uL HBSS buffer (containing 20 mM HEPES) to the compound plate, mixing well and centrifugating. Placing the cell plate and compound plate into FLIPR and reading the fluorescence value.
(§12) 3) After the EC50 test, placing the cell plate into a 37° C., 5% CO2 incubator to be incubated for 25 minutes. Calculating the EC80 value with the EC50 value of the positive agonist, preparing 4× EC80 solution, adding it to the 384 compound plate by multichannel pipette, and mixing well and centrifugating.
(§13) 4) IC50 test: In FLIPR, successively placing 4× EC80 plate, cell plate, FLIPR tip, running the program and reading the fluorescence value.
4. […]

δ opioid receptor = δ opioid receptor (Homo sapiens, UniProt P41143); assay: FLIPR intracellular calcium signal test, HEK293-δ cells; settings: for EC50: read-out: Delt receptor EC50, EC50 (activation) test; for IC50: read-out: Delt receptor IC50, IC50 (inhibition) test against EC80 of positive agonist
Method: as §1, §2, §3, §4, §5, §6, §7, §8, §9, §10, §11, §12, §13
4. […]

Row | SMILES | EC50 (μ opioid receptor) | IC50 (μ opioid receptor) | EC50 (κ opioid receptor) | IC50 (κ opioid receptor) | EC50 (δ opioid receptor) | IC50 (δ opioid receptor)
1 | CCC12CCCCC(Cc3c(F)cc(O)cc31)C2N (single isomer, unassigned) [Compound 28] | < 100 nM | 100 to 1000 nM | > 100000 nM | 100 to 1000 nM | > 100000 nM | 1000 to 10000 nM
2 | CCC12CCCCC(Cc3c(F)cc(O)cc31)C2N (single isomer, unassigned) [Compound 29] | < 100 nM | 100 to 1000 nM | > 100000 nM | 1000 to 10000 nM | > 100000 nM | 10000 to 100000 nM
